This is a selection; strong and weak results do not stand in their true shares. Active and inactive are the calls of the source. The call rests on the fitted dose curve; in most records, active means well fitted inhibition curve with a large enough effect; inconclusive means small, poorly fitted or top-dose-only effect; inactive means no such curve, though single readings can be large or run the other way.
On the % scale 0 is the no-effect control and ±100 the full control effect.

Chains of the proteins cited; added tags and fusions are not shown.
UniProt P38398, whole entry: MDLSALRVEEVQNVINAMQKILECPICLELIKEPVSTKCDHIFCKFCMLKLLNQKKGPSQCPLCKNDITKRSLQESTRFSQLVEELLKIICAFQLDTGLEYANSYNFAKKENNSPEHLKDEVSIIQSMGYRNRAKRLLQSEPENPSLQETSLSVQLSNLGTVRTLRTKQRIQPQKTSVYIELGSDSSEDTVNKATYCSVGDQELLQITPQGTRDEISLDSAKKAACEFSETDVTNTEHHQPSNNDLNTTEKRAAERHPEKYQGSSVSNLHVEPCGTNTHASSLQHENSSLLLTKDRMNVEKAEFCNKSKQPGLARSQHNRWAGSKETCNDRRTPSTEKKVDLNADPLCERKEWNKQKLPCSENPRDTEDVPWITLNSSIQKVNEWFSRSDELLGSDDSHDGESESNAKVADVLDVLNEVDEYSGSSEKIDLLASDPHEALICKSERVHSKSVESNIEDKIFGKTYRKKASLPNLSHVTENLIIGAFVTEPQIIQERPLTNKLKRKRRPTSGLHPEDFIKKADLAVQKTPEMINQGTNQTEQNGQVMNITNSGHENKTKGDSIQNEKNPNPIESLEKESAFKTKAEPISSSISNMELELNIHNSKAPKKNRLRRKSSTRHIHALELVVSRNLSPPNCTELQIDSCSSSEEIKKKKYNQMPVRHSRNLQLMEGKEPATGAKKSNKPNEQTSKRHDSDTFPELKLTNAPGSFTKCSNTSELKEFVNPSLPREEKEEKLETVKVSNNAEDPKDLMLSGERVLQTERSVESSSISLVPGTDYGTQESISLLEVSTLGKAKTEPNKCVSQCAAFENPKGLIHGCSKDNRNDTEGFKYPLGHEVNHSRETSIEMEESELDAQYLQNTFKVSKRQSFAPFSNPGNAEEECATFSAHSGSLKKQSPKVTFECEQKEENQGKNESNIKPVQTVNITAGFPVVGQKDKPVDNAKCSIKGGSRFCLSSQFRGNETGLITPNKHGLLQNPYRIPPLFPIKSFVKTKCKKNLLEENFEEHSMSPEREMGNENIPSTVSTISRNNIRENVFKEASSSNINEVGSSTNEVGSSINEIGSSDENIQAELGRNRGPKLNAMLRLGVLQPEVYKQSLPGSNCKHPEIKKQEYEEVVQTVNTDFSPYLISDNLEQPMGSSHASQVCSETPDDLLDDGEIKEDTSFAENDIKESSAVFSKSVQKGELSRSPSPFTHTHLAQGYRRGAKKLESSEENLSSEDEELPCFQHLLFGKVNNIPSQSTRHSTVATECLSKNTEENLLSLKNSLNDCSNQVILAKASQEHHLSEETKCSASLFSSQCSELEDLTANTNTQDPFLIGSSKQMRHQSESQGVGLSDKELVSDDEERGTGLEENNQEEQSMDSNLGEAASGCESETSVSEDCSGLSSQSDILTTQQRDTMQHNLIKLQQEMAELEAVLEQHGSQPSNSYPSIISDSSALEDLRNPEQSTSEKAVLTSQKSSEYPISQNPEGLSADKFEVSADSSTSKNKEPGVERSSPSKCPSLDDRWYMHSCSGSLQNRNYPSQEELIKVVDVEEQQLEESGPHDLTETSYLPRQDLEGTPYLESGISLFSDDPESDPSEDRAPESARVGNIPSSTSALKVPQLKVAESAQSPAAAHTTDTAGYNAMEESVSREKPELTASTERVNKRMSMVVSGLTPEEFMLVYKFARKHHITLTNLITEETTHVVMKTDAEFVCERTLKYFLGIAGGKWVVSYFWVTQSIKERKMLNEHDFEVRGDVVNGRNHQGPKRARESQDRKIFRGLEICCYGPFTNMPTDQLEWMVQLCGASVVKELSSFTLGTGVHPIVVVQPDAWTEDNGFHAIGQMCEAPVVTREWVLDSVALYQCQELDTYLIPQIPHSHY

This assay addresses Breast cancer type 1 susceptibility protein (Homo sapiens) (UniProt P38398). The assay can be described thus: qHTS Assay for Inhibitors of BRCT-Phosphoprotein Interaction (Red Fluorophore). The conditions noted are these: BRCT-phosphopeptide binding, red fluorescence polarization; at 76.9 µM (top of the series) unless noted. How it is done:
NIH Molecular Libraries Screening Centers Network [MLSCN]
NIH Chemical Genomics Center [NCGC]
PI Name: Natarajan, Amarnath; University of Texas
A complex of BRCT (C-terminal portion of BRCA1, MW ~35 kDa, His-tagged) and fluorescently labeled pBACH1 phosphorylated 10 aa peptide fragment of BACH1, a helicase implicated in DNA repair, is incubated with library members. Inhibitors of BRCT-pBACH1 binding are detected by a decrease in the fluorescence polarization (FP) of the fluorophore. In order to minimize the effect of fluorescence artifacts and to increase the overall robustness of the screen, the compound library members were incubated in separate reactions with rhodamine-labeled probe-protein complexes. Protein and labeled probes were supplied by Dr. Amarnath Natarajan, Department of Pharmacology and Toxicology, University of Texas Medical Branch Galveston, TX.
Assay Buffer: 16mM Na2HPO4, 4 mM NaH2PO4, 150 mM NaCl, 1 mM EDTA, 1 mM DTT, 0.02% NaN3, and 0.01% Tween 20 at pH 7.3.
Assay Controls: 100 nM TAMRA labeled decapeptide dispensed into columns 3 and 4 to generate negative control (full inhibition of
binding, -100 % activity). 100 nM labeled decapeptide/100 nM protein in columns 1, 2, 5 - 48. Titration of unlabeled decapeptide control (from 10 mM, then 1:2 dilution in duplicate) pin-transferred to column 2, rows 1 to 16. Column 1 is neutral.
Three uL of reagents were dispensed to 1536-well Greiner black solid-bottom plates. Compounds and controls (23 nL) were transferred via Kalypsys PinTool. The plates were incubated for 12 min at room temperature, and then read on ViewLux (Perkin-Elmer) High-throughput CCD imager using BODIPY for the rhodamine-labeled decapeptide probe polarization filter sets. During dispense, reagent bottles were kept submerged into 4 deg C water bath and all liquid lines were covered with aluminum foil to minimize probe and protein degradation. All screening operations were performed on a Kalypsys robotic system (Kalypsys, Inc., San Diego, CA) containing one RX-130 and two RX-90 anthropomorphic robotic arms. The timing and order of assay plates passing through the screening system were adjusted such that each compound library plate was assayed against the fluorescein- and rhodamine-labeled assay systems at immediately adjacent time points.
Background: qHTS replaces the single test concentration by a dilution series.
With `N#CC1(Nc2ccccc2)CCN(CCc2ccccc2)CC1`, the activity change, negative = inhibition was inactive: 1.74%. In the case of `CCOP(=O)(Cl)Cl` it was inactive: 0.999%; in that of `NC1CCCCC1.NP(=O)(O)N(CCCl)CCCl`, inactive: -0.645% [at 15.4 µM].

With `O=C(OC1CN2CCC1CC2)C1c2ccccc2Oc2ccccc21` (stereo unspecified), the activity change, negative = inhibition is inactive: 2.23%. As for `COc1ccc(NC2CCN(CCc3ccccc3)CC2)c(OC)c1`, the activity change, negative = inhibition was inactive: -2.21%.

In the case of `Fc1ccccc1NC1CCN(Cc2ccccc2)CC1`, the activity change, negative = inhibition was inactive: 1.39%.

With `CCOc1ncccc1C(=O)NCC1(N2CCOCC2)CCCCC1`, the activity change, negative = inhibition is inactive: -0.166%. With `O=C(O)C1(Nc2ccccc2)CCN(Cc2ccccc2)CC1`, the activity change, negative = inhibition is inactive: -0.39% [at 15.4 µM]. On to `CCC(CO)(C(=O)OC1CN2CCC1CC2)c1ccccc1` (stereo unspecified), for which the activity change, negative = inhibition is inactive: -1.93%. For `N/C(=N\O)c1c(N)no[n+]1[O-]`, the activity change, negative = inhibition was inactive: -1.27%. Take `ClCCOP(OCCCl)OCCCl`: the activity change, negative = inhibition was inactive: 0.277%.

The record behind these values is PubChem BioAssay AID892 (National Center for Advancing Translational Sciences (NCATS), 2007).
